Activity calls are given as the source filed them.
Tests used:
Format in all cases: cell-based
[1] = biological target: T1, Progesterone receptor (Homo sapiens) (UniProt P06401); assay: Antagonist activity at progesterone-induced Progesterone receptor (unknown origin) transfected in HEK293T cells at high concentration by Dual-Luciferase Reporter assay
T1 sequence (whole entry): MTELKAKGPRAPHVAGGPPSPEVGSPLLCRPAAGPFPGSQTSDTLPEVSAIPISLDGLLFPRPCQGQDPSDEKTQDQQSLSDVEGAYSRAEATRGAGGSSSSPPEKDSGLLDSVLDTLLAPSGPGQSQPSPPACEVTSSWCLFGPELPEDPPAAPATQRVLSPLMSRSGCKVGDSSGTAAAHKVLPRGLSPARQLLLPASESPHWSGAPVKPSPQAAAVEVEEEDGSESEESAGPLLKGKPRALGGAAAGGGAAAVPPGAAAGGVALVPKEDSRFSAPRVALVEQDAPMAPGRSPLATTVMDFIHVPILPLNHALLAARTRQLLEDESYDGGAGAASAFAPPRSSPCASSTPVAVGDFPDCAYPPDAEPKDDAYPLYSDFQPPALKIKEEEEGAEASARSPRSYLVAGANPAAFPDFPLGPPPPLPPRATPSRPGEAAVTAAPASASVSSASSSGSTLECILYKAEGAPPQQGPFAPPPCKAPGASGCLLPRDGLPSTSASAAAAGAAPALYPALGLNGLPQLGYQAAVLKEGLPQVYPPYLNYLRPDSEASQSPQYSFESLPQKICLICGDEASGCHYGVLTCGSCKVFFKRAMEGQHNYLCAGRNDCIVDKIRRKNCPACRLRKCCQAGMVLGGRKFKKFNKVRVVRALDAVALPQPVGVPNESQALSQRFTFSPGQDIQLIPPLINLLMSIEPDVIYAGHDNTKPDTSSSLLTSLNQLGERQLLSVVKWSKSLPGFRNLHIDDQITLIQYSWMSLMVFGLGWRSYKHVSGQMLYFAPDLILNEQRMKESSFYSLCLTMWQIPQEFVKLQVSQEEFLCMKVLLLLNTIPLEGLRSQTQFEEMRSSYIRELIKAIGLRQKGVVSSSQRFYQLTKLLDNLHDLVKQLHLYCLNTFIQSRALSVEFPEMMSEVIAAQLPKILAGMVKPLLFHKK

[2] = biological target: T1, Progesterone receptor (Homo sapiens); assay: Agonist activity at progesterone-induced Progesterone receptor (unknown origin) transfected in HEK293T cells at high concentration by Dual-Luciferase Reporter assay
[3] = biological target: T2, Glucocorticoid receptor (Homo sapiens) (UniProt P04150); assay: Agonist activity at dexamethasone-induced Glucocorticoid receptor (unknown origin) transfected in HeLa cells co-expressing mmTV incubated for 24 hrs by Dual-Luciferase Reporter assay
T2 sequence (whole entry): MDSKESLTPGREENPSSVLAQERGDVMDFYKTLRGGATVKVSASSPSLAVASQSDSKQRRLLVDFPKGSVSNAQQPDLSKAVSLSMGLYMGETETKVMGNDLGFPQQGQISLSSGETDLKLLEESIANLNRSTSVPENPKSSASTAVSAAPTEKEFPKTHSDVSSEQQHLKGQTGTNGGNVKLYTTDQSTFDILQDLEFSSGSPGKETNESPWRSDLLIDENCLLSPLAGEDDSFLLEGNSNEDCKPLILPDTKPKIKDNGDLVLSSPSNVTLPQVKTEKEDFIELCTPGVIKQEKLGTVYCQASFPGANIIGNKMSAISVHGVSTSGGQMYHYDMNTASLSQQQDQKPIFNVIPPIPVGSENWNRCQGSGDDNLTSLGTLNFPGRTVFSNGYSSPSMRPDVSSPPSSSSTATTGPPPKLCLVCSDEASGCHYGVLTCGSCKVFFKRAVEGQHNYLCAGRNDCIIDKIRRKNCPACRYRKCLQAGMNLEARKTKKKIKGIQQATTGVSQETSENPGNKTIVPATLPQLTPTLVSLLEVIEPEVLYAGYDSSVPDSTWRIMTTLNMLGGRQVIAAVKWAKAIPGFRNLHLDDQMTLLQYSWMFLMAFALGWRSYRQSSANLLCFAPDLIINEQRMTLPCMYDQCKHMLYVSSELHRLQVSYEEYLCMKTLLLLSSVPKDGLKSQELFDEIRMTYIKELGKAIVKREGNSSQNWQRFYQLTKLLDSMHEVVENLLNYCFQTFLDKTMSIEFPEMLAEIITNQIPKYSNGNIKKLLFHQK

[4] = biological target: T3, Mineralocorticoid receptor (Homo sapiens) (UniProt P08235); assay: Antagonist activity at aldosterone-induced Mineralocorticoid receptor (unknown origin) transfected in HEK293T cells by Dual-Luciferase Reporter assay
T3 sequence (whole entry): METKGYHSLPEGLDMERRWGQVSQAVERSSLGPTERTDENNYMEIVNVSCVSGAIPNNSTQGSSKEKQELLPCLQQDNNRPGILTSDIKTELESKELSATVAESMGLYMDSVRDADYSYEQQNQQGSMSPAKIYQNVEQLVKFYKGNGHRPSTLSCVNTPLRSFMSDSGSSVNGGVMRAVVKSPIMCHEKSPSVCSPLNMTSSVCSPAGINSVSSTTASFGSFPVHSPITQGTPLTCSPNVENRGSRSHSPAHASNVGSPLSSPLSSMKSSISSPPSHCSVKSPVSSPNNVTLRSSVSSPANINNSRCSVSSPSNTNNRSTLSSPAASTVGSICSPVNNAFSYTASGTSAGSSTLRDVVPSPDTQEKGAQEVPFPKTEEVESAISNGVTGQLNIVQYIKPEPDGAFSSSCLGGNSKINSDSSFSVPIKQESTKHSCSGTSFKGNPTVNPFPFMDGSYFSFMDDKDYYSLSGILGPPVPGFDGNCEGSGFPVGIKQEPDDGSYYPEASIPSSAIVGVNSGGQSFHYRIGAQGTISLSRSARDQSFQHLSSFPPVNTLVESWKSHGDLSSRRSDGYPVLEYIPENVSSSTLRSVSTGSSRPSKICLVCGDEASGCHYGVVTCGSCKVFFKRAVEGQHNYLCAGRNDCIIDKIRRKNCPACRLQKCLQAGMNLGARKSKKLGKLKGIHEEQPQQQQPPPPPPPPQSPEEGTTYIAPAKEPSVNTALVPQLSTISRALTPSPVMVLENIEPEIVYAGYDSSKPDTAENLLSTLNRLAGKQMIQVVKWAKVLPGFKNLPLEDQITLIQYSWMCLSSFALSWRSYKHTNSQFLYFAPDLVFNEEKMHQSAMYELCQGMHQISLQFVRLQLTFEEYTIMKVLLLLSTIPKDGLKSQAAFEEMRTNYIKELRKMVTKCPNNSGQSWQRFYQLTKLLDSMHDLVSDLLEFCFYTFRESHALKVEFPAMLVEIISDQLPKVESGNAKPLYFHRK

Measured: Activity

CN(Cc1ccc(F)cc1)c1ccc2c(C(F)(F)F)cc(=O)oc2c1
inactive: [1] | [2] | [3]

CNC(=O)c1ccc(N2C(=S)N(c3ccc(C#N)c(C(F)(F)F)c3)C(=O)C2(C)C)cc1F [ENZALUTAMIDE]
inactive: all assays above

From ChEMBL document CHEMBL6127118, “Identification of Oral Bioavailable Coumarin Derivatives as Potential AR Antagonists Targeting Prostate Cancer” (J Med Chem, 2024)
